This note sets out measurements from PubChem BioAssay.

“And” between values parts separate entries of the source, which are not always exact repeats. Equal entries are not always repeated. This is a selection; strong and weak results do not stand in their true shares. Records with an inconclusive call do not appear. The source made the active and inactive calls. Unless noted, the rule behind the calls is not given here.

Test system in one assay: not listed separately
In words: compounds altering circadian rhythm period length – cell-based, LOPAC library, luminescence reporter (AID 2774).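 Note: values are relative to mean of DMSO wells on each plate.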 As to conditions: circadian reporter cells, at 7 µM, actives lie on both sides.
For the compound `CN(C(=O)Cc1ccc(Cl)c(Cl)c1)[C@H]1CCCC[C@@H]1N1CCCC1`, the period change was inactive: 0.09 hour and inactive: 0.02 hour.
Take `CN(C(=O)Cc1ccc(Cl)c(Cl)c1)[C@@H]1CCCC[C@H]1N1CCCC1`: the period change is inactive: -0.02 h.
Still for that read-out and setting: with `CN(CCCl)Cc1cc(Cl)c(NC2=NCCN2)c(Cl)c1` the figure was inactive: 0.155 h; with `CN(C(=O)Cc1ccc(Cl)c(Cl)c1)[C@@H]1CC[C@]2(CCCO2)C[C@H]1N1CCCC1`, inactive: -0.04 h.
For `CN(C(=O)Cc1ccccc1)[C@@H]1CC[C@]2(CCCO2)C[C@H]1N1CCCC1`, the period change is inactive: -0.025 h.
As for `CN(C(=O)Cc1ccc(Cl)c(Cl)c1)[C@@H]1CCCC[C@@H]1N1CCCC1`, the period change was inactive: -0.075 h.

Test system in a further assay: not listed separately
The experiment in a line: Wnt pathway potentiators raising nuclear beta-catenin – imaging, WNT3A-conditioned medium, mouse C2C12, NPC library, primary screen (AID 1117326; in the data active = nuclear beta-catenin stimulation mostly above about 4.2%, no sharp cut-off; inactive = mostly below about 10%). As to conditions: at 10 µM, hits give high values.
As to `CN(C(=O)Cc1ccc(Cl)c(Cl)c1)[C@H]1CC[C@@]2(CCCO2)C[C@@H]1N1CCCC1`, the nuclear beta-catenin stimulation is inactive: 2.2%.
Still for that read-out and setting: the figure for `NC(=O)Nc1ccc([As](=O)(O)O)cc1` is inactive: 0.6%; for `CN(C(=O)Cc1ccccc1)[C@H]1CC[C@@]2(CCCO2)C[C@@H]1N1CCCC1` it is inactive: 3.8%.

Test system in another assay: not listed separately
In words: stimulators of insulin release from INS-1E, primary screen, cell-based, 5 mM glucose, NPC library (AID 1117329;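 active = compound raises insulin release from rat beta cells at 5 mM glucose, no numeric limit stated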). As to conditions: rat INS-1E insulin secretion, at 10 µM, hits give high values.
For `CN(C(=O)Cc1ccc(Cl)c(Cl)c1)[C@H]1CC[C@@]2(CCCO2)C[C@@H]1N1CCCC1`, the insulin secretion stimulation is inactive: 10%.
Same read-out and setting: the figure for `NC(=O)Nc1ccc([As](=O)(O)O)cc1` is inactive: -2%; for `CN(C(=O)Cc1ccccc1)[C@H]1CC[C@@]2(CCCO2)C[C@@H]1N1CCCC1` it is inactive: 2.2%.

Test system in the next assay: not listed separately
The experiment in a line: growth inhibition of GSK3B-pretreated HCT116 cells – cell-based, CellTiter-Glo, 0.2 to 20 µM (AID 1117336;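 active = compounds lowering colon cancer cell viability after pretreatment blocking the GSK3B kinase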). As to conditions: HCT116 viability after GSK3B inhibitor, at 20 µM, hits give high values.
Regarding `CN(C(=O)Cc1ccc(Cl)c(Cl)c1)[C@H]1CC[C@@]2(CCCO2)C[C@@H]1N1CCCC1`, the viability decrease was inactive: -6.3%.
Still for that read-out and setting: with `NC(=O)Nc1ccc([As](=O)(O)O)cc1` the figure was inactive: -3.5%.
With `CN(C(=O)Cc1ccccc1)[C@H]1CC[C@@]2(CCCO2)C[C@@H]1N1CCCC1`, the viability decrease was inactive: 15.2%.

Test system in the next assay: not listed separately
In words: inhibition of endothelial tube formation, primary screen, imaging, VEGF stimulated, CD31 staining, tube area, NPC library (AID 1117340;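 active = compound that reduces growth-factor-driven endothelial tube area in a mixed cell culture, no cutoff stated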). As to conditions: VEGF-stimulated ADSC/ECFC co-culture, at 10 µM, hits give high values.
With `CN(C(=O)Cc1ccc(Cl)c(Cl)c1)[C@H]1CC[C@@]2(CCCO2)C[C@@H]1N1CCCC1`, the tube area decrease was inactive: 5.3%.
Still for that read-out and setting: the figure for `NC(=O)Nc1ccc([As](=O)(O)O)cc1` is inactive: -20.7%.
Take `CN(C(=O)Cc1ccccc1)[C@H]1CC[C@@]2(CCCO2)C[C@@H]1N1CCCC1`: the tube area decrease is inactive: -5.8%.

Test system in the next assay: not listed separately
The experiment in a line: GLP1 release stimulators, primary, NCI-H716, NPC library (AID 1117341;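 active = compound raises GLP1 secretion from the human gut endocrine cells, with no numeric limit stated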). As to conditions: NCI-H716 cells, at 10 µM, hits give high values.
Take `CN(C(=O)Cc1ccc(Cl)c(Cl)c1)[C@H]1CC[C@@]2(CCCO2)C[C@@H]1N1CCCC1`: the GLP1 secretion stimulation was inactive: -0.9%.
`NC(=O)Nc1ccc([As](=O)(O)O)cc1`: the GLP1 secretion stimulation is inactive: -0.9%.
Regarding `CN(C(=O)Cc1ccccc1)[C@H]1CC[C@@]2(CCCO2)C[C@@H]1N1CCCC1`, the GLP1 secretion stimulation was inactive: 1.9%.

Test system in the next assay: not listed separately
The experiment in a line: HCT116 colon cancer cell growth inhibition, primary screen, CellTiter-Glo luminescence, NPC library (AID 1117342;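 active = compounds that lower survival of HCT116 colon cancer cells in the luminescence readout, no numeric limit stated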). As to conditions: at 20 µM (top of the series). On the technique in general: Cellular ATP, detected with luciferase, serves as a proxy for viable cell number.
For the compound `CN(C(=O)Cc1ccc(Cl)c(Cl)c1)[C@H]1CC[C@@]2(CCCO2)C[C@@H]1N1CCCC1`, the inhibition of viability is inactive: 42.7%.
The same measure, in the same setting: with `NC(=O)Nc1ccc([As](=O)(O)O)cc1` the figure was inactive: -8.3%; with `CN(C(=O)Cc1ccccc1)[C@H]1CC[C@@]2(CCCO2)C[C@@H]1N1CCCC1`, inactive: 5.9%.

Test system in the next assay: not listed separately
The experiment in a line: reduced SW480 viability measured with CellTiter-Glo, NPC library, primary (AID 1117343;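 active = compounds that lower viability of the colon cancer cells in the luminescence readout, with no numeric limit stated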). As to conditions: CellTiter-Glo luminescence; at 20 µM (top of the series).
Turning to `CN(C(=O)Cc1ccc(Cl)c(Cl)c1)[C@H]1CC[C@@]2(CCCO2)C[C@@H]1N1CCCC1`, the viability decrease (inhibition) is inactive: 42.1%.
Regarding `NC(=O)Nc1ccc([As](=O)(O)O)cc1`, the viability decrease (inhibition) is active: 82.1%.
For the compound `CN(C(=O)Cc1ccccc1)[C@H]1CC[C@@]2(CCCO2)C[C@@H]1N1CCCC1`, the viability decrease (inhibition) was inactive: -9.8%.

Test system in a further assay: not listed separately
The experiment in a line: NPC library primary testing for decreased DLD-1 cell viability via CellTiter-Glo (AID 1117346;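 active = compounds that lower survival of DLD-1 colon cancer cells in the luminescence readout, no cutoff given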). As to conditions: DLD-1 viability, CellTiter-Glo luminescence; at 20 µM (top of the series).
For the compound `CN(C(=O)Cc1ccc(Cl)c(Cl)c1)[C@H]1CC[C@@]2(CCCO2)C[C@@H]1N1CCCC1`, the viability decrease (inhibition) is inactive: 17.9%.
In the case of `NC(=O)Nc1ccc([As](=O)(O)O)cc1`, the viability decrease (inhibition) was inactive: 8.6%.
On the same count and under the same terms, with `CN(C(=O)Cc1ccccc1)[C@H]1CC[C@@]2(CCCO2)C[C@@H]1N1CCCC1` the figure was inactive: -7.7%.

The test system of another assay is Aerobactin synthetase IucA (Klebsiella pneumoniae, hypervirulent). The experiment in a line: biochemical IucA inhibition screen of LOPAC library by absorbance (AID 1346212).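 Note: 100% = no compound wells and 0% = no enzyme wells.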 As to conditions: IucA enzyme assay, absorbance (OD) readout; hits give low values;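 tested at 8 µM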.
The term remaining activity denotes the signal under treatment as a percentage of the control signal. For the compound `CN(C(=O)Cc1ccc(Cl)c(Cl)c1)[C@H]1CCCC[C@@H]1N1CCCC1`, the remaining activity is inactive: 98.4%.
Still for that read-out and setting: with `CN(CCCl)Cc1cc(Cl)c(NC2=NCCN2)c(Cl)c1` the figure was inactive: 117%.
For `CN(C(=O)Cc1ccccc1)[C@H]1CC[C@@]2(CCCO2)C[C@@H]1N1CCCC1`, the remaining activity was inactive: 112%.
Still for that read-out and setting: the figure for `CN(C(=O)Cc1ccc(Cl)c(Cl)c1)[C@@H]1CC[C@]2(CCCO2)C[C@H]1N1CCCC1` is inactive: 104%; for `CN(C(=O)Cc1ccc(Cl)c(Cl)c1)[C@@H]1CCCC[C@@H]1N1CCCC1` it is inactive: 123%.

Test system in another assay: not listed separately
In words: growth inhibition of DIPG cells – cell-based, MIPE5.0 library, qHTS (AID 1347068; cut-off not given, nearly all actives have IC50 up to about 30 µM;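 for IC50: cells exposed to compound for 48 hours before viability readout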). As to conditions: SU-DIPG-XXV viability. For orientation: In qHTS, concentration-response curves come from the screen itself.
One may read the IC50 as the midpoint of a concentration-inhibition curve. With `N[C@@H](Cc1ccc([N+]([O-])(CCCl)CCCl)cc1)C(=O)O`, the IC50 is active: 23.5 µM.
On to `CN(C)C1(c2ccccc2)CCC2(CC1)OCCc1c2[nH]c2ccc(F)cc12` (stereo not drawn), for which the result was inactive.
Same read-out and setting: with `CCn1c(=O)n([C@@H]2CCN(CC3CCCCCCC3)C[C@H]2CO)c2ccccc21` the entry was “inactive”.
